Results on 61 molecules are retold here after PubChem BioAssay AID1665 (Sanford-Burnham Center for Chemical Genomics, 2009).

The list shows a part of the results, in another mix than the full data. Some salts or complexes appear as unconnected parts, following the source record. The source made the active and inactive calls.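 The calls were made as follows: active = nuclear translocation activity above 50% at 5 µM, with a well cell count of 50 or more; inconclusive = wells under 50 cells across six images, flagged as toxic; inactive = the rest.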

A short description of this experiment: modulators of beta-catenin nuclear translocation, primary screen, imaging, HeLa cells, immunofluorescence, high-content (AID 1665).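 Also: per-cell ratio of nuclear to cytoplasmic median beta-catenin stain intensity; plate controls were DMSO negative control for no effect and GSK-3 inhibitor IX positive control for full effect.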 The note with it: at 5 µM, active compounds read high.
Regarding `COc1ccc(OP(C)(=O)Nc2ccc(SC(F)(F)F)cc2)cc1` (stereo unspecified), the nuclear translocation activity was inactive: -3.3%. As for `CCOC(=O)c1ccc(NP(C)(=O)Oc2ccc(F)cc2)cc1` (stereo unspecified), the nuclear translocation activity was inactive: -1.8%. With `CCOC(=O)NC(Sc1ccccc1)C(Cl)(Cl)Cl` (stereo unspecified) the figure was inactive: -1.6%.

For the molecule `Cc1ccc(NP(=O)(Oc2cccc(C)c2)Oc2cccc(C)c2)nc1`, the nuclear translocation activity was inactive: -0.6%. With `c1ccc(-c2nn[nH]n2)c(-c2nn[nH]n2)c1` the figure was inactive: -0.4%; with `O=C(NC1CCS(=O)(=O)C1)NP(=S)(Oc1ccccc1)Oc1ccccc1` (stereo unspecified), inactive: -0.5%. With `CCNC(=S)/N=C(\N)N[N+](=O)[O-]` the figure was inactive: 0.7%; with `CC(=O)Nc1ccc(Oc2c([N+](=O)[O-])cc([N+](=O)[O-])cc2[N+](=O)[O-])cc1`, inactive: -0.4%. On to `COc1ccc2c(c1O)-c1c(O)c(OC)cc3c1[C@H](C2)[N+](C)(C)CC3.O=[N+]([O-])c1cc([N+](=O)[O-])c([O-])c([N+](=O)[O-])c1[O-]`, for which the nuclear translocation activity was inactive: -1.4%.

Take `CC(=O)Nc1ccc([As](=O)(O)O)c(O)c1`: the nuclear translocation activity was inactive: -0.2%. For `C[C@@H]1C=CCP(=O)(Oc2ccccc2)O1` (stereo partly specified), the nuclear translocation activity was inactive: -1.6%.

Turning to `C[C@H]1OP(=O)(Oc2ccccc2)C[C@@H]2O[C@@H]21` (stereo partly specified), the nuclear translocation activity is inactive: -0.2%. The value for `O=C(OCCN1CCN(CCOCc2ccccc2)CC1)C(O)(c1ccccc1)c1ccccc1` was inactive: -0.4%; that for `O=C(OC1CN2CCC1CC2)c1ccc([N+](=O)[O-])cc1` (stereo unspecified) was inactive: 2.9%.

`CC(C)c1ccc(OP(C)(=O)Nc2ccc(SC(F)(F)F)cc2)cc1` (stereo unspecified): the nuclear translocation activity is inactive: -1.2%. The value for `CC(C)(C)C(=O)NC(Sc1ccccc1)C(Cl)(Cl)Cl` (stereo unspecified) was inactive: 0.1%; that for `CP(=O)(Nc1ccccc1F)Oc1ccccc1` (stereo unspecified) was inactive: -3.3%. On to `CCOc1ccc(C2=NCC(CBr)S2)cc1` (stereo unspecified), for which the nuclear translocation activity was inactive: 0.4%. With `O=P1(Nc2nc3ccc(Cl)cc3s2)COc2ccccc2O1` (stereo unspecified) the figure was inactive: -7.8%.

Turning to `Cc1ccccc1NP(C)(=O)Nc1ccccc1C`, the nuclear translocation activity was inactive: 2.2%. With `CP(=O)(Nc1ccc2c(c1)OCCO2)Oc1ccccc1` (stereo unspecified) the figure was inactive: -2.9%; with `c1nnnn1CCn1cnnn1`, inactive: 2.3%. The value for `CCOP(C)(=S)SCC(=O)NC(C)(CC)C(=O)O` (stereo unspecified) was inactive: -2.5%; that for `O=P(Nc1nccs1)(c1ccccc1)c1ccccc1` was inactive: -0.6%.

Turning to `CC(C)C(=O)NC(Sc1ccccc1)C(Cl)(Cl)Cl` (stereo unspecified), the nuclear translocation activity was inactive: 2.4%.

With `CP(=O)(Nc1ccc(SC(F)(F)F)cc1)Oc1ccc(F)cc1` (stereo unspecified), the nuclear translocation activity is inactive: 0.6%. With `O=C(OC1CN2CCC1CC2)c1cccc(Cl)c1` (stereo unspecified), the nuclear translocation activity was inactive: 1.2%. With `Nc1ccc([As](=O)(O)c2ccc([N+](=O)[O-])cc2)cc1`, the nuclear translocation activity is inactive: -1.4%. With `C(Cc1nn[nH]n1)Cc1nn[nH]n1` the figure was inactive: -2.5%; with `O=[N+]([O-])c1cc([N+](=O)[O-])c(NCC2CCS(=O)(=O)C2)c([N+](=O)[O-])c1` (stereo unspecified), inactive: 4.1%; with `Cc1cc(-c2cccc3ccccc23)c(C)cn1.O=[N+]([O-])c1cc([N+](=O)[O-])c(O)c([N+](=O)[O-])c1`, inactive: 3.7%. Take `O=[As](O)(c1ccccc1)c1ccc(O)cc1`: the nuclear translocation activity is inactive: -1.3%. With `O=[N+]([O-])c1ncn(CCn2cnc([N+](=O)[O-])n2)n1` the figure was inactive: -0.3%; with `CC(=O)NC(SC(=S)N(C)C)C(Cl)(Cl)Cl` (stereo unspecified), inactive: -0.2%; with `O=[N+]([O-])c1ccc(OP2(=O)COCCO2)cc1` (stereo unspecified), inactive: 0.2%. The value for `COc1ccc(NP(C)(=O)Oc2ccccc2OC)cc1` (stereo unspecified) was inactive: 0.7%. The value for `C[C@H]1OP(=O)(Oc2ccccc2)[C@H](O)[C@H](O)[C@H]1N=[N+]=[N-]` (stereo partly specified) was inactive: -1.1%; that for `O=P(Nc1nc2ccccc2s1)(c1ccccc1)c1ccccc1` was inactive: -1.6%; that for `CN(C)CCOC(=O)C(O)(c1ccccc1)C1CCCCC1` (stereo unspecified) was inactive: -0.3%.

For `O=P(Nc1ccccn1)(c1ccc(Br)cc1)c1ccc(Br)cc1`, the nuclear translocation activity was inactive: 0.8%.

`COc1ccc(OP(C)(=O)Nc2cccc(Br)c2)cc1` (stereo unspecified): the nuclear translocation activity was inactive: 1.8%. Take `CP(=O)(Nc1ccc(SC(F)(F)F)cc1)Oc1ccccc1` (stereo unspecified): the nuclear translocation activity was inactive: -4%. The value for `Nc1cccc([As](=O)(O)c2ccccc2)c1` was inactive: 1.1%. With `CCCOc1ccc(NP(C)(=O)Oc2ccc(Cl)cc2)cc1` (stereo unspecified) the figure was inactive: -0.2%; with `O=P1(Nc2ccc(Br)cn2)COc2ccccc2OC1`, inactive: 0.7%. The value for `O=[As](O)(c1cccs1)c1cccs1` was inactive: -0.8%; that for `Cc1ccc(OCC(=O)OC2CN3CCC2CC3)cc1` (stereo unspecified) was inactive: -1.1%.

Consider `O=P1(Nc2ncccn2)COc2ccccc2OC1`, for which the nuclear translocation activity is inactive: -7.5%.

With `CN1CCCCC1COC(=O)C1(O)c2ccccc2CCc2ccccc21` (stereo unspecified), the nuclear translocation activity was inactive: -0.6%. The value for `COc1ccccc1OP(C)(=O)Nc1c(C)cccc1C` (stereo unspecified) was inactive: 0.9%; that for `CCOC(=O)C(CC)C1=NC(C)(C)Cc2ccccc21.O=[N+]([O-])c1cc([N+](=O)[O-])c(O)c([N+](=O)[O-])c1` (stereo unspecified) was inactive: -1.2%; that for `O=[N+]([O-])c1cc([N+](=O)[O-])c(Nc2nnnn2CCO)c([N+](=O)[O-])c1` was inactive: 0.4%. For `CN(C)C1(CNC(=O)c2ccc(S(C)(=O)=O)cc2)CCCCC1`, the nuclear translocation activity was inactive: -1.3%. With `O=C(/C=C/c1ccccc1)OC1CN2CCC1CC2` (stereo unspecified) the figure was inactive: -1%. As for `CC1CCC(C(C)C)C(OP(=O)(Nc2ccccn2)c2ccccc2)C1` (stereo unspecified), the nuclear translocation activity was inactive: 2.8%. With `COc1cc(C2NCCC3(OCCO3)C2(C)C)cc(OC)c1OC.O=[N+]([O-])c1cc([N+](=O)[O-])c(O)c([N+](=O)[O-])c1` (stereo unspecified) the figure was inactive: -0.6%; with `CN(C(=O)Cc1ccc(Cl)c(Cl)c1)[C@@H]1CCCC[C@H]1N1CCCC1`, inactive: -2.2%. The value for `CC(C)/C=N\N=C(\N)N[N+](=O)[O-]` was inactive: 0.3%; that for `Cc1nc2ccc3ccccc3c2s1.O=[N+]([O-])c1cc([N+](=O)[O-])c(O)c([N+](=O)[O-])c1` was inactive: -2%.

Turning to `O=[As](O)(c1ccccc1Br)c1ccccc1Br`, the nuclear translocation activity was inactive: -2.1%. For the molecule `CC(C)(C)C(=O)NC(Sc1ncccn1)C(Cl)(Cl)Cl` (stereo unspecified), the nuclear translocation activity was inactive: -2.1%.
